Measured values: patent EP4141110A1 (priority 2020, dated 2021)

Test system: mice
Conditions: mouse, in vivo

## iron polymaltosate hydroxide [Fe(C12H22O11)3]
  Therapeutic ratio × 10^-7: 250 × 10^-7
